Test results reported in ChEMBL document CHEMBL2169809, “Identification of high-affinity P2Y₁₂ antagonists based on a phenylpyrazole glutamic acid piperazine backbone” (J Med Chem, 2012).

What was measured:
[1] = test system: Platelet; assay: Inhibition of ADP-stimulated platelet aggregation in human platelet rich plasma by 96-well format based turbidimetric method; assay type: functional
In short: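 Citrated (ACD-A) donor blood was spun at 150g for 15 min at room temperature to give PRP. PRP was adjusted with PPP to 3 × 10^8 platelets/mL. Compound, diluted in NaCl, was preincubated with hPRP for 5 min before ADP was added.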

[2] = test system: Platelet; assay: Inhibition of ADP-stimulated platelet aggregation in human platelet rich plasma by light transmission aggregometry based Born method; assay type: functional, cell-based
In short: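 Buffered-citrate blood was spun at 340g for 15 min to give PRP, adjusted with PPP to 3 × 10^8 platelets/mL. ADP was then added and light transmission recorded for 6 min under the same conditions. % inhibition came from AUC; IC50 was averaged from at least triplicate runs.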

Compound	IC50 [1]	IC50 [2]
CCOC(=O)N1CCN(C(=O)[C@H](CCNS(C)(=O)=O)NC(=O)c2cc(OCC(=O)N3CCC[C@H]3C(=O)NC3CCC3)n(-c3ccccc3)n2)CC1	130 nM	
O=C(O)CC[C@H](NC(=O)c1cc(OCC(=O)N2CCC[C@H]2C(=O)NC2CCC2)n(-c2ccccc2)n1)C(=O)N1CCN(C(=O)OC2CCC2)CC1		42 nM
CCOC(=O)N1CCN(C(=O)[C@H](CCC(=O)O)NC(=O)c2cc(OCC(=O)N3CCC[C@H]3C(=O)NC3CCC3)n(-c3ccccc3)n2)[C@H](C)C1		21 nM
CCOC(=O)N1CCN(C(=O)[C@H](CCC(=O)O)NC(=O)c2cc(OCC(=O)N3CCC[C@H]3c3ccccc3)n(-c3ccccc3)n2)CC1	290 nM	
